Test results from patent publication US7511063B2, “High affinity quinoline-based kinase ligands” (Schering Corporation, priority 2006, dated 2009).

The molecules below were run against CDK-2 (Homo sapiens, UniProt P24941) (assay: Fluorescence polarization displacement assay (inhibitory effectiveness toward CDK-2)). Conditions: IC50, inhibitory effectiveness toward CDK-2.

| IC50 [µM] | SMILES |
| --- | --- |
| 1 to 40 | Cn1nnnc1[C@H](Cc1ccc(O)cc1)NC(=O)c1cc(C(=O)O)c2cc(-c3cccc(C(F)(F)F)c3)ccc2n1 [Compound 102] |
| < 1 | COC[C@H](Cc1ccc(O)cc1)NC(=O)c1cc(C(=O)O)c2cc(-c3cccc(Cn4cccn4)c3)ccc2n1 [Compound 23] |
| < 1 | COC[C@H](Cc1ccc(O)cc1)NC(=O)c1cc(NS(=O)(=O)C(C)C)c2cc(-c3cccc(C(F)(F)F)c3)ccc2n1 [Compound 89] |
| 1 to 40 | COC[C@H](Cc1ccc(O)cc1)NC(=O)c1cc(C(=O)O)c2cc(CSc3cccs3)ccc2n1 [Compound 150] |
| < 1 | COC[C@H](Cc1ccc(O)cc1)NC(=O)c1cc(C(=O)O)c2cc(-c3cccc(Cn4ccnc4)c3)ccc2n1 [Compound 22] |
| 1 to 40 | COC[C@H](Cc1ccc(O)cc1)NC(=O)c1cc(C(=O)O)c2cc(COc3cccnc3)ccc2n1 [Compound 149] |
| 1 to 40 | COC[C@H](Cc1ccc(O)cc1)NC(=O)c1cc(C(=O)O)c2cc(COc3cccc(F)c3)ccc2n1 [Compound 147] |
| < 1 | COC[C@H](Cc1ccc(O)cc1)NC(=O)c1cc(C(=O)O)c2cc(OCc3ccc(Cl)cc3)ccc2n1 [Compound 43] |
| < 1 | COC[C@H](Cc1ccc(O)cc1)NC(=O)c1cc(NS(=O)(=O)C(C)(C)C)c2cc(-c3cccc(C(F)(F)F)c3)ccc2n1 [Compound 15] |
| 1 to 40 | COC[C@H](Cc1ccc(O)cc1)NC(=O)c1cc(NS(C)(=O)=O)c2cc(-c3cccc(C(F)(F)F)c3)ccc2n1 [Compound 96] |
| < 1 | COC[C@H](Cc1ccc(O)cc1)NC(=O)c1cc(C(=O)O)c2cc(COc3ccc(OC(F)(F)F)cc3)ccc2n1 [Compound 47] |
| < 1 | CCCCS(=O)(=O)Nc1cc(C(=O)N[C@H](COC)Cc2ccc(O)cc2)nc2ccc(-c3cccc(C(F)(F)F)c3)cc12 [Compound 61] |
| > 40 | COC[C@H](Cc1ccc(O)cc1)NC(=O)c1cc(C(=O)O)c2cc(-c3cccc(CN(C)CCN(C)C)c3)ccc2n1 [Compound 194] |
| 1 to 40 | COC[C@H](Cc1ccc(O)cc1)NC(=O)c1cc(C(=O)O)c2cc(COc3cccc(C(F)(F)F)c3)ccc2n1 [Compound 106] |
| < 1 | CCOC[C@H](Cc1ccc(O)cc1)NC(=O)c1cc(C(=O)O)c2cc(-c3cccc(C(F)(F)F)c3)ccc2n1 [Compound 35] |
| > 40 | COC[C@H](Cc1ccc(O)cc1)NC(=O)c1cc(N2CCCCS2(=O)=O)c2cc(-c3cccc(C(F)(F)F)c3)ccc2n1 [Compound 179] |
| > 40 | COC[C@H](Cc1ccc(O)cc1)NC(=O)c1cc(C(=O)O)c2cc(CSc3cccc(Cl)c3)ccc2n1 [Compound 209] |
| < 1 | Cn1nnc([C@H](Cc2ccc(O)cc2)NC(=O)c2cc(C(=O)O)c3cc(-c4cccc(C(F)(F)F)c4)ccc3n2)n1 [Compound 17] |
| > 40 | COC[C@H](Cc1ccc(O)cc1)NC(=O)c1cc(N(C)S(=O)(=O)C(C)(C)C)c2cc(-c3cccc(C(F)(F)F)c3)ccc2n1 [Compound 178] |
| 1 to 40 | Cn1ccnc1[C@H](Cc1ccc(O)cc1)NC(=O)c1cc(C(=O)O)c2cc(-c3cccc(C(F)(F)F)c3)ccc2n1 [Compound 100] |
| > 40 | COC[C@H](Cc1ccc(O)cc1)NC(=O)c1cc(C(=O)O)c2cc(-c3cccc(CNCCN(C)C)c3)ccc2n1 [Compound 198] |
| < 1 | COC[C@H](Cc1ccc(O)cc1)NC(=O)c1cc(C(=O)O)c2cc(OCc3cccc(C(F)(F)F)c3)ccc2n1 [Compound 46] |
| < 1 | CC(C)(C)OC(=O)[C@H](Cc1ccc(O)cc1)NC(=O)c1cc(C(=O)O)c2cc(-c3cccc(C(F)(F)F)c3)ccc2n1 [Compound 12] |
| > 40 | COC[C@H](Cc1ccc(O)cc1)NC(=O)c1cc(C(=O)O)c2cc(-c3cccc(CNCCO)c3)ccc2n1 [Compound 196] |
| 1 to 40 | COC[C@H](Cc1ccc(O)cc1)NC(=O)c1cc(C(=O)O)c2cc(OCc3ccccc3)ccc2n1 [Compound 128] |
| 1 to 40 | COC[C@H](Cc1ccc(O)cc1)NC(=O)c1cc(C(=O)O)c2cc(-c3cccc(CN4CCSC4)c3)ccc2n1 [Compound 124] |
| < 1 | O=C(N[C@H](CO)Cc1ccc(O)cc1)c1cc(C(=O)O)c2cc(-c3cccc(C(F)(F)F)c3)ccc2n1 [Compound 78] |
| < 1 | COC(=O)[C@H](Cc1ccc(O)cc1)NC(=O)c1cc(C(=O)O)c2cc(-c3ccc(C(F)(F)F)cc3)ccc2n1 [Compound 57] |
| < 1 | COC(=O)C[C@H](Cc1ccc(O)cc1)NC(=O)c1cc(C(=O)O)c2cc(-c3cccc(C(F)(F)F)c3)ccc2n1 [Compound 40] |
| 1 to 40 | COC[C@H](Cc1ccc(O)cc1)NC(=O)c1cc(C(=O)O)c2cc(CSc3ccc(Cl)cc3)ccc2n1 [Compound 126] |

Continued, molecule first:

| SMILES | IC50 [µM] |
| --- | --- |
| COC(=O)[C@H](Cc1ccc(OC(C)(C)C)cc1)NC(=O)c1cc(C(=O)O)c2cc(/C=C/C(C)(C)C)ccc2n1 [Compound 165] | > 40 |
| CN1CCN(C[C@H](Cc2ccc(O)cc2)NC(=O)c2cc(C(=O)O)c3cc(/C=C/c4ccc(Cl)cc4)ccc3n2)CC1 [Compound 80] | < 1 |
| COC(=O)[C@H](Cc1ccncc1)NC(=O)c1cc(C(=O)O)c2cc(-c3cccc(C(F)(F)F)c3)ccc2n1 [Compound 123] | 1 to 40 |
| COC[C@H](Cc1ccc(O)cc1)NC(=O)c1cc(C(=O)O)c2cc(-c3cccc(CN4CCN(C)CC4)c3)ccc2n1 [Compound 184] | > 40 |
| COC(=O)[C@H](Cc1ccc(O)cc1)NC(=O)c1cc(C(=O)O)c2cc(C3CC3c3ccccc3)ccc2n1 (some centres unmarked) [Compound 2] | < 1 |
| COC[C@H](Cc1ccc(O)cc1)NC(=O)c1cc(C(=O)O)c2cc(C#CCCn3ccnc3)ccc2n1 [Compound 223] | > 40 |
| COC[C@H](Cc1ccc(O)cc1)NC(=O)c1cc(C(=O)O)c2cc(-c3cccc(CN4CCC(O)CC4)c3)ccc2n1 [Compound 193] | > 40 |
| COC(=O)[C@H](Cc1ccc(O)cc1)NC(=O)c1cc(C(=O)O)c2cc(-c3ccc(C#N)cc3)ccc2n1 [Compound 121] | 1 to 40 |
| COC(=O)[C@H](Cc1ccc(O)cc1)NC(=O)c1cc(C(=O)O)c2cc(-c3ccc4c(c3)OCO4)ccc2n1 [Compound 74] | < 1 |
| NCC[C@H](Cc1ccc(O)cc1)NC(=O)c1cc(C(=O)O)c2cc(/C=C/c3ccc(Cl)cc3)ccc2n1 [Compound 84] | < 1 |
| COC(=O)[C@H](Cc1ccc(O)cc1)NC(=O)c1cc(C(=O)N[C@H](C(=O)O)C(C)C)c2cc(OCc3ccccc3)ccc2n1 [Compound 115] | 1 to 40 |
| O=C(N[C@@H](Cc1ccc(O)cc1)C(=O)O)c1cc(C(=O)O)c2cc(-c3cccc(Cl)c3)ccc2n1 [Compound 140] | 1 to 40 |
| COC(=O)[C@H](Cc1ccc([N+](=O)[O-])cc1)NC(=O)c1cc(C(=O)O)c2cc(-c3cccc(C(F)(F)F)c3)ccc2n1 [Compound 161] | > 40 |
| CN(C)CCNC[C@H](Cc1ccc(O)cc1)NC(=O)c1cc(C(=O)O)c2cc(/C=C/c3ccc(Cl)cc3)ccc2n1 [Compound 127] | 1 to 40 |
| CCC(C)[C@H](NC(=O)c1cc(C(=O)NC(Cc2ccc(O)cc2)C(=O)OC)nc2ccc(-c3cccs3)cc12)C(=O)O (some centres unmarked) [Compound 132] | 1 to 40 |
| COC(=O)[C@H](Cc1ccc(O)cc1)NC(=O)c1cc(C(=O)O)c2cc(/C=C/c3ccccc3)ccc2n1 [Compound 37] | < 1 |
| COC(=O)[C@H](Cc1ccc(O)cc1)NC(=O)c1cc(C(=O)O)c2cc(-c3ccc(O)cc3)ccc2n1 [Compound 134] | 1 to 40 |
| NC[C@H](Cc1ccc(O)cc1)NC(=O)c1cc(C(=O)O)c2cc(/C=C/c3ccc(Cl)cc3)ccc2n1 [Compound 18] | < 1 |

| SMILES | IC50 [µM] |
| --- | --- |
| COC[C@H](Cc1ccc(O)cc1)NC(=O)c1cc(NS(=O)(=O)c2ccccc2)c2cc(-c3cccc(C(F)(F)F)c3)ccc2n1 [Compound 65] | < 1 |
| COC[C@H](Cc1ccc(O)cc1)NC(=O)c1cc(C(=O)OC[C@@H](N)C(C)C)c2cc(/C=C/c3ccc(Cl)cc3)ccc2n1 [Compound 216] | > 40 |
| COC(=O)[C@H](Cc1ccc(O)cc1)NC(=O)c1cc(C(=O)OCC(O)CO)c2cc(-c3cccs3)ccc2n1 (some centres unmarked) [Compound 232] | > 40 |
| COC[C@H](Cc1ccc(O)cc1)NC(=O)c1cc(NS(=O)(=O)C(C)(C)C)c2cc(-c3cccc(Cn4ccnc4)c3)ccc2n1 [Compound 28] | < 1 |
| COC[C@H](Cc1ccc(O)cc1)NC(=O)c1cc(NS(=O)(=O)Cc2ccccc2)c2cc(-c3cccc(C(F)(F)F)c3)ccc2n1 [Compound 53] | < 1 |
| COC[C@H](Cc1ccc(O)cc1)NC(=O)c1cc(C(=O)O)c2cc(C#CCON)ccc2n1 [Compound 222] | > 40 |
| COC(=O)C(Cc1ccc(O)cc1)NC(=O)c1cc(C(=O)N(C)C)c2cc(-c3cccs3)ccc2n1 (centres unmarked) [Compound 236] | > 40 |
| COC(=O)[C@H](Cc1ccc(O)cc1)NC(=O)c1cc(C(=O)O)c2cc(/C=C/c3ccc(C(F)(F)F)cc3)ccc2n1 [Compound 5] | < 1 |
| COC[C@H](Cc1ccc(O)cc1)NC(=O)c1cc(-n2ccnc2)c2cc(-c3cccc(Cn4ccnc4)c3)ccc2n1 [Compound 212] | > 40 |
| COC[C@H](Cc1ccc(O)cc1)NC(=O)c1cc(NS(=O)(=O)C(C)(C)C)c2cc(-c3cccc(Cn4ccccc4=O)c3)ccc2n1 [Compound 79] | < 1 |
| COC(=O)C(NC(=O)c1cc(C(=O)O)c2cc(-c3cccc(C(F)(F)F)c3)ccc2n1)[C@@H](C)c1ccccc1 (some centres unmarked) [Compound 70] | < 1 |
| COC(=O)[C@H](Cc1ccc(O)cc1)NC(=O)c1cc(C(=O)O)c2cc(C(C)c3ccccc3)ccc2n1 (some centres unmarked) [Compound 160] | > 40 |
| COC[C@H](Cc1ccc(O)cc1)NC(=O)c1cc(NS(=O)(=O)C(C)(C)C)c2cc(C#Cc3ccccn3)ccc2n1 [Compound 119] | 1 to 40 |
| COC(=O)[C@H](Cc1ccc(O)cc1)NC(=O)c1cc(C(=O)O)c2cc(-c3ccc(-c4ccccc4)cc3)ccc2n1 [Compound 85] | < 1 |
| NC[C@H](Cc1ccc(O)cc1)NC(=O)c1cc(C(=O)O)c2cc(C#Cc3ccccn3)ccc2n1 [Compound 142] | 1 to 40 |
| COC(=O)C(Cc1ccc(O)cc1)NC(=O)c1cc(C(=O)N[C@H](C(=O)O)C(C)C)c2cc(-c3cccs3)ccc2n1 (some centres unmarked) [Compound 153] | 1 to 40 |
| COC(=O)c1cccc(-c2ccc3nc(C(=O)N[C@@H](Cc4ccc(O)cc4)C(=O)OC)cc(C(=O)O)c3c2)c1 [Compound 62] | < 1 |
